Structures are written as SMILES. Only a part is listed here, and it is no random draw. Some salts or complexes appear as unconnected parts, following the source record. The source made the active and inactive calls.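 How the source made its calls: active means inhibition of at least 50% at 20 µM; inactive means the rest.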

The nature of this experiment: inhibition of PEG-3 promoter activity – cell-based, HeLa, luciferase luminescence, primary screen (AID 588405). To be noted: HeLa PEG-Prom luciferase reporter, overnight, at 20 µM, active compounds read high. On the technique in general: Reporter assays use an easily measured gene product as a stand-in for the process of interest.
As a reminder, the inhibition is the change of the read-out against control, counted positive when it falls. In the case of `CCN(CC)CCCOC(=O)C(O)(c1ccccc1)c1ccccc1`, the inhibition was inactive: 11.8%.
In the case of `Cc1cc(C)cc(OP(C)(N)=O)c1` (centres undefined) it was inactive: 0.16%; in that of `COc1ccccc1OP(C)(=O)Nc1cc(Cl)ccc1C` (centres undefined), inactive: 12.7%; in that of `COc1ccc(OP(C)(=O)Nc2cccc(F)c2)cc1` (centres undefined), inactive: 2.85%.
The same measure for `COc1ccccc1OP(C)(=O)Nc1ccc(C)cc1` (centres undefined): inactive: 14.3%; for `Cc1ccc(NP(C)(=O)Oc2ccccc2)c(C)c1` (centres undefined): inactive: 22.8%.
In the case of `CCOC(=O)c1ccc(NP(C)(=O)Oc2ccccc2)cc1` (centres undefined) it was inactive: 0.39%; in that of `O=[N+]([O-])c1ccc2c(c1)C=Nc1ccccc1O2`, inactive: 18.1%.
On to `CC(C)(C)c1ccc(OP(C)(=O)Nc2ccc(SC(F)(F)F)cc2)cc1` (centres undefined), for which the inhibition was inactive: 19.7%.
In the case of `Cc1cccc(C)c1OP(C)(N)=O` (centres undefined) it was inactive: 16.1%; in that of `O=[N+]([O-])c1cc([N+](=O)[O-])c(Nc2cccnc2)c([N+](=O)[O-])c1`, inactive: 30.3%; in that of `CP(=O)(Nc1ccccc1Br)Oc1ccccc1` (centres undefined), inactive: -11.7%.
In the case of `COc1ccccc1OP(C)(=O)Nc1ccccc1` (centres undefined) it was inactive: 3.88%; in that of `CP(=S)(Nn1cnnc1)Oc1ccccc1` (centres undefined), inactive: -1.15%.
In the case of `CP(=O)(Nc1ccccn1)Oc1ccc(Cl)cc1` (centres undefined), the inhibition was inactive: 21.1%.
In the case of `CCOC(=O)c1ccc(NP(C)(=O)Oc2ccc(OC)cc2)cc1` (centres undefined), the inhibition is inactive: 9.44%.
With `O=[N+]([O-])c1cc([N+](=O)[O-])c(O)c([N+](=O)[O-])c1.c1ccc(Oc2ccncc2)cc1`, the inhibition is inactive: 6.87%.
The same measure for `CCOP(C)(=S)SCC(=O)NC(C)C(=O)O` (centres undefined): inactive: 20.7%.
On to `CP(=O)(NC(=O)Nc1ccccc1)Oc1ccccc1` (centres undefined), for which the inhibition is inactive: 8.98%.
The same measure for `CCc1ccc(OP(C)(=O)N2CCN(c3ccc([N+](=O)[O-])cc3)CC2)cc1` (centres undefined): inactive: 31.6%; for `Cc1cc(C)cc(OP(C)(=O)Nc2ccc(SC(F)(F)F)cc2)c1` (centres undefined): inactive: 22.5%; for `Cc1cccc(C)c1OP(C)(=O)Nc1ccc(SC(F)(F)F)cc1` (centres undefined): inactive: -71.5%.
The same measure for `Cc1ccc(Nc2c([N+](=O)[O-])cc([N+](=O)[O-])cc2[N+](=O)[O-])cc1`: inactive: 15.4%; for `CP(=O)(Nc1ccc(SC(F)(F)F)cc1)Oc1ccc(Cl)cc1` (centres undefined): inactive: 22.1%; for `CP(=O)(Oc1ccccc1)OC(c1ccccc1)C(F)(F)F` (centres undefined): inactive: 6.61%.
The same measure for `Cc1nc2ccc3ccccc3c2s1.O=[N+]([O-])c1cc([N+](=O)[O-])c(O)c([N+](=O)[O-])c1`: inactive: -0.88%; for `O=[N+]([O-])c1cc([N+](=O)[O-])c(-c2cnn(-c3ccccc3)c2)c([N+](=O)[O-])c1`: inactive: 13.9%; for `CN(Cc1cccnc1)C(=O)COc1ccc(Cl)c(Cl)c1.O=[N+]([O-])c1cc([N+](=O)[O-])c(O)c([N+](=O)[O-])c1`: inactive: -8.75%.
As to `O=[N+]([O-])c1cc([N+](=O)[O-])c(-n2nnc3ccccc32)c([N+](=O)[O-])c1`, the inhibition is inactive: -6.65%.
In the case of `CCCOc1ccc(NP(C)(=O)Oc2ccc(Cl)cc2)cc1` (centres undefined) it was inactive: 19.3%; in that of `CP(=O)(Nc1ccc(SC(F)(F)F)cc1)Oc1ccccc1` (centres undefined), inactive: 19.2%.
Turning to `COc1ccccc1OP(C)(=O)Nc1c(C)cccc1C` (centres undefined), the inhibition is inactive: 8.19%.
The same measure for `CN1CCCCC1COC(=O)C1(O)c2ccccc2CCc2ccccc21` (centres undefined): inactive: 8.78%.
Regarding `CC1=C2N=C(C=C3N=C(C(C)=C4[N-][C@@](C)([C@@H]5N=C1[C@](C)(CCC(=O)NC[C@@H](C)OP(=O)([O-])O[C@H]1[C@@H](O)[C@@H](n6cnc7cc(C)c(C)cc76)O[C@@H]1CO)[C@H]5CC(N)=O)[C@@](C)(CC(N)=O)[C@@H]4CCC(N)=O)[C@@](C)(CC(N)=O)[C@@H]3CCC(N)=O)C(C)(C)[C@@H]2CCC(N)=O.[C-]#N.[Co+3]`, the inhibition is inactive: -17.3%.
In the case of `O=[N+]([O-])c1cc([N+](=O)[O-])c(Nc2nnnn2CCO)c([N+](=O)[O-])c1` it was inactive: -9.91%; in that of `CCOC(=O)C(CC)C1=NC(C)(C)Cc2ccccc21.O=[N+]([O-])c1cc([N+](=O)[O-])c(O)c([N+](=O)[O-])c1` (centres undefined), inactive: 19.1%.
The same measure for `CC1=NCCc2c1[nH]c1ccccc21.O=[N+]([O-])c1cc([N+](=O)[O-])c(O)c([N+](=O)[O-])c1`: inactive: -8.9%; for `O=C(O)c1cccc(Nc2c([N+](=O)[O-])cc([N+](=O)[O-])cc2[N+](=O)[O-])c1`: inactive: -0.56%; for `Cc1ccc(C)c(NP(C)(=O)Oc2ccccc2)c1` (centres undefined): inactive: 10.9%.
In the case of `Cc1cc(C)cc(OP(C)(=O)Nc2ccccn2)c1` (centres undefined) it was inactive: 8.13%; in that of `CP(=O)(Nc1cccc(Br)c1)Oc1ccccc1` (centres undefined), inactive: 8.69%; in that of `CCOC(=O)c1ccc(NP(C)(=O)Oc2cc(C)cc(C)c2)cc1` (centres undefined), inactive: 19.2%.
With `Cc1cc(C)cc(OP(C)(=O)Nc2ccc(C)cc2C)c1` (centres undefined), the inhibition is inactive: 20.6%.
In the case of `COc1ccccc1OP(C)(=O)Nc1cccc(Br)c1` (centres undefined) it was inactive: 5.69%.
The same measure for `COc1ccc2c(c1O)-c1c(O)c(OC)cc3c1[C@H](C2)[N+](C)(C)CC3.O=[N+]([O-])c1cc([N+](=O)[O-])c([O-])c([N+](=O)[O-])c1[O-]`: inactive: 2.14%.
The same measure for `O=C(OC1CN2CCC1CC2)c1ccc([N+](=O)[O-])cc1` (centres undefined): inactive: 7.98%; for `O=C(OCCN1CCN(CCOCc2ccccc2)CC1)C(O)(c1ccccc1)c1ccccc1`: inactive: 1.48%; for `CP(=O)(Nc1ccccc1F)Oc1ccccc1` (centres undefined): inactive: -30.1%.
With `CC(C)c1ccc(OP(C)(=O)Nc2ccc(SC(F)(F)F)cc2)cc1` (centres undefined), the inhibition is inactive: 16.2%.
In the case of `O=[N+]([O-])c1cc([N+](=O)[O-])c(Nc2ccc(Cl)cc2)c([N+](=O)[O-])c1` it was inactive: 46.1%; in that of `CP(=O)(Nc1ccccc1)Oc1ccc(F)cc1` (centres undefined), inactive: 4.88%.
The same measure for `CCCCCOc1ccc(NP(C)(=O)Oc2ccc(Cl)cc2Cl)cc1` (centres undefined): inactive: 2.32%; for `O=[N+]([O-])c1cc([N+](=O)[O-])c(OC2CCCCC2O)c([N+](=O)[O-])c1` (centres undefined): inactive: 11.6%.
In the case of `Cc1c([N+](=O)[O-])cc([N+](=O)[O-])c(Br)c1[N+](=O)[O-]` it was inactive: -2.61%; in that of `CCN(CC)CCCOC(=O)C(O)(c1ccccc1)C1CCCCC1` (centres undefined), inactive: -9.29%; in that of `CCOC(=O)c1ccc(NP(C)(=O)Oc2ccc(F)cc2)cc1` (centres undefined), inactive: -2.44%.
With `COc1ccc(OP(C)(=O)Nc2ccc(SC(F)(F)F)cc2)cc1` (centres undefined), the inhibition was inactive: 10.2%.
Take `Cc1c(C(c2ccc3c(c2)OCO3)c2c(C)n(C)n(-c3ccccc3)c2=O)c(=O)n(-c2ccccc2)n1C.O=[N+]([O-])c1cc([N+](=O)[O-])c(O)c([N+](=O)[O-])c1`: the inhibition is inactive: 1.56%.
In the case of `O=[N+]([O-])c1ccc(OP2(=O)COCCO2)cc1` (centres undefined) it was inactive: 0.43%; in that of `O=[N+]([O-])c1cc([N+](=O)[O-])c(NCC2CCS(=O)(=O)C2)c([N+](=O)[O-])c1` (centres undefined), inactive: 19.8%.
In the case of `Cc1cc(-c2cccc3ccccc23)c(C)cn1.O=[N+]([O-])c1cc([N+](=O)[O-])c(O)c([N+](=O)[O-])c1` it was inactive: -5.34%.
In the case of `CN(C)CCOC(=O)C(O)(c1ccccc1)C1CCCCC1` (centres undefined) it was inactive: -0.79%; in that of `COc1ccc(NP(C)(=O)Oc2ccccc2OC)cc1` (centres undefined), inactive: -7.54%; in that of `COc1ccc(OP(C)(=O)Nc2cccc(Br)c2)cc1` (centres undefined), inactive: 16.3%.
For `Cc1ccccc1NP(C)(=O)Nc1ccccc1C`, the inhibition is inactive: 2.5%.
`CP(=O)(Nc1ccc2c(c1)OCCO2)Oc1ccccc1` (centres undefined): the inhibition was inactive: -7.87%.
In the case of `CP(=O)(Nc1ccc(SC(F)(F)F)cc1)Oc1ccc(F)cc1` (centres undefined), the inhibition was inactive: 29.6%.
For the compound `CN(C)C(=O)c1c([N+](=O)[O-])cc([N+](=O)[O-])cc1[N+](=O)[O-]`, the inhibition was inactive: 12.6%.
In the case of `COc1ccccc1OP(C)(=O)Nc1ccccc1Br` (centres undefined) it was inactive: 11.8%; in that of `CC(C)(C)c1ccc(OP(C)(=O)O)cc1`, inactive: -5.48%; in that of `CP(=O)(Nc1ccc(Cl)cc1)Oc1ccc(F)cc1` (centres undefined), inactive: 5.59%.
In the case of `COc1ccccc1OP(C)(=O)Nc1c(C)n(C)n(-c2ccccc2)c1=O` (centres undefined) it was inactive: 3.23%; in that of `O=C(OCCCN1CCCC1)C(O)(c1ccccc1)C1CCCCC1` (centres undefined), inactive: 0.39%.
Consider `CP(=O)(Oc1ccccc1)N1CCOC1=O` (centres undefined), for which the inhibition was inactive: 0.51%.
The same measure for `CCc1ccc(OP(C)(=O)Nc2cccnc2)cc1` (centres undefined): inactive: 2.21%.
In the case of `CCN(CC)CC(O)COC(=O)C(O)(c1ccccc1)C1CCCCC1` (centres undefined) it was inactive: -24.3%; in that of `COc1ccc(OP(C)(=O)Nc2ccc(Br)cc2)cc1` (centres undefined), inactive: -14%; in that of `CCOC(=O)c1ccc(NP(C)(=O)Oc2ccc(Cl)cc2)cc1` (centres undefined), inactive: 18.9%.
The same measure for `CP(=O)(OC12CC3CC(CC(C3)C1)C2)OC12CC3CC(CC(C3)C1)C2`: inactive: 10.4%; for `CCCCCCCCCCCCCCCC1C[N+](C)(C)CCOP(C)(=O)O1` (centres undefined): active: 52.7%.
For the compound `CP(=O)(Nc1ccc(Cl)cc1Cl)Oc1ccccc1` (centres undefined), the inhibition was inactive: 14.7%.
In the case of `CP(=O)(OCCOc1ccccc1)OCCOc1ccccc1` it was inactive: 0.03%.
The same measure for `COc1ccccc1OP(C)(=O)Nc1ccc(C)c(C)c1` (centres undefined): inactive: 6.82%.
As to `COc1ccc(OP(C)(=O)Nc2ccccc2Br)cc1` (centres undefined), the inhibition is inactive: 8.77%.
The same measure for `O=C1C(O)=C([N+](=O)[O-])C(=O)C(O)=C1[N+](=O)[O-]`: inactive: -2.41%; for `Cc1cc(C)cc(OP(C)(=O)Nc2cccc(C(F)(F)F)c2)c1` (centres undefined): inactive: 12.4%; for `CP(=O)(Nc1ccccn1)Oc1ccccc1` (centres undefined): inactive: 2.6%.
The same measure for `COc1ccccc1OP(C)(=O)Nc1ccc(C)cc1C` (centres undefined): inactive: 6.74%.
Regarding `CCc1ccc(OP(C)(=O)O)cc1`, the inhibition was inactive: -0.98%.
In the case of `Cc1c(NP(C)(=O)Oc2ccc(C(C)C)cc2)c(=O)n(-c2ccccc2)n1C` (centres undefined) it was inactive: -2.94%; in that of `O=[N+]([O-])c1cc([N+](=O)[O-])c(Nc2ccccn2)c([N+](=O)[O-])c1`, inactive: 26.6%.
The same measure for `COc1ccc(OP(C)(=O)Nc2ccccn2)cc1` (centres undefined): inactive: 3.43%.
In the case of `CN(C)CCOC(=O)C(O)(c1ccccc1)C1CCCC1` (centres undefined) it was inactive: -0.79%; in that of `COc1ccccc1OP(C)(=O)Nc1ccc(Br)cc1` (centres undefined), inactive: 6.72%.

Source of the values: PubChem BioAssay AID588405 (Sanford-Burnham Center for Chemical Genomics, 2011).
